From patent publication US20260200947A1, “FUSED CYCLIC COMPOUNDS AND USE THEREOF” (Jacobio Pharmaceuticals Co., Ltd., priority 2022, published 2026) come the findings set out here.

Protein sequences, listed by entry. Tags and fused reporters are not part of them. Residues count along the entry.
UniProt P01116, 1-169 isoform 2 G12D limits assumed: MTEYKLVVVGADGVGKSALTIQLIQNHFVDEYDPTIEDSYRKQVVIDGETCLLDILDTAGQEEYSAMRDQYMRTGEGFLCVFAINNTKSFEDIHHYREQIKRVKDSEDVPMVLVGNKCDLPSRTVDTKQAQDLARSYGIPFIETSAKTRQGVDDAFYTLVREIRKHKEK
UniProt P01116, 1-169 isoform 2 G12V limits assumed: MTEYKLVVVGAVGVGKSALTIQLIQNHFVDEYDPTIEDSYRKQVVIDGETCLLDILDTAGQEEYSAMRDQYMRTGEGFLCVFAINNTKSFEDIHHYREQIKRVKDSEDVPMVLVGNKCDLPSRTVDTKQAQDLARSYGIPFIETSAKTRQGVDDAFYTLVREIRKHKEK

One may read the IC50 as the concentration that inhibits the measured activity by half.

One experiment deals with GppNp-KRAS G12D (Homo sapiens, UniProt P01116, G12D). As to the kind of experiment: GTP-K-Ras and cRAF interaction assay, GppNp-KRAS G12D. The conditions noted are these: read-out: Biochemical assays, IC50, KRAS G12D GppNp; GppNp-loaded K-Ras G12D, cRAF RBD interaction, HTRF.
In the case of `C#Cc1c(F)ccc2cc(N)cc(-c3nc4c5c(nc(OC[C@@]67CCCN6C[C@H](F)C7)nc5c3F)N3C[C@H](OC)COC[C@H]3N4C)c12`, the IC50 came out at 341 nM.

`C#Cc1c(F)ccc2cc(N)cc(-c3nc4c5c(nc(OCC67CCCN6CC(F)C7)nc5c3F)N3C(C(C)C)CCOCC3N4C)c12` (stereo not shown): the IC50 was over 1000 nM.

As to `C#Cc1c(F)ccc2cc(N)cc(-c3nc4c5c(nc(OC[C@@]67CCCN6C[C@H](F)C7)nc5c3F)N3C(COC)CCOCC3N4C)c12` (stereo partly shown), the IC50 was determined as 101 nM.

Consider `C#Cc1c(F)ccc2cc(N)cc(-c3nc4c5c(nc(OC[C@@]67CCCN6C[C@H](F)C7)nc5c3F)N3CCCC[C@](C)(F)[C@H]3N4C)c12`, for which the IC50 stood at 593 nM.

Take `C#Cc1c(F)ccc2cc(N)cc(-c3nc4c5c(nc(OC[C@@]67CCCN6C[C@H](F)C7)nc5c3F)N3CCCCOC[C@H]3N4C)c12`: the IC50 stood at 63.9 nM.

As for `C#Cc1c(F)ccc2cc(N)cc(-c3nc4c5c(nc(OC[C@@]67CCCN6C[C@H](F)C7)nc5c3F)N3CCCC[C@H](Cl)[C@H]3N4C)c12`, the IC50 was found to be 21.6 nM.

Regarding `C#Cc1c(F)ccc2cc(N)cc(-c3nc4c5c(nc(OC[C@@]67CCCN6C[C@H](F)C7)nc5c3F)N3CCCCC[C@H]3C4=C)c12`, the IC50 stood at 98.5 nM.

`C#Cc1c(F)ccc2cc(N)cc(-c3nc4c5c(nc(OC[C@@]67CCCN6C[C@H](F)C7)nc5c3F)N3CCCCC[C@@H]3N4C)c12`: the IC50 was over 1000 nM.

Consider `C#Cc1c(F)ccc2cc(N)cc(-c3nc4c5c(nc(OCC67CCCN6CC(=C(F)F)C7)nc5c3F)N3CCCOCC3CO4)c12` (single isomer, unassigned) [Compound 26B], for which the IC50 was 63.2 nM.

Turning to `C#Cc1c(F)ccc2cc(N)cc(-c3nc4c5c(nc(OC[C@@]67CCCN6C[C@H](F)C7)nc5c3F)N3CC(F)(F)CCC[C@H]3N4C)c12`, the IC50 worked out at 47.4 nM.

For the compound `C#Cc1c(F)ccc2cc(N)cc(-c3nc4c5c(nc(OC[C@@]67CCCN6C[C@H](F)C7)nc5c3F)N3CC(F)COCC3N4C)c12` (single isomer, unassigned) [Compound 39A], the IC50 was found to be 46.1 nM.

`C#Cc1c(F)ccc2cc(N)cc(-c3nc4c5c(nc(OC[C@@]67CCCN6C[C@H](F)C7)nc5c3F)N3CCC=C[C@@H](F)[C@@H]3N4C)c12`: the concentration for half-maximal inhibition (IC50) was over 1000 nM.

The target of a further experiment is GppNp-KRAS G12V (Homo sapiens, UniProt P01116, G12V). Kind of experiment: GTP-K-Ras and cRAF interaction assay, GppNp-KRAS G12V. The conditions noted are these: read-out: Biochemical assays, IC50, KRAS G12V GppNp; GppNp-loaded K-Ras G12V, cRAF RBD interaction, HTRF. (In general: TR-FRET usually uses a lanthanide donor and a delayed reading to cut background.)
As for `C#Cc1c(F)ccc2cc(N)cc(-c3nc4c5c(nc(OC[C@@]67CCCN6C[C@H](F)C7)nc5c3F)N3C[C@H](OC)COC[C@H]3N4C)c12`, the IC50 was determined as 686 nM.

Regarding `C#Cc1c(F)ccc2cc(N)cc(-c3nc4c5c(nc(OCC67CCCN6CC(F)C7)nc5c3F)N3C(C(C)C)CCOCC3N4C)c12` (stereo not shown), the IC50 is over 1000 nM.

Consider `C#Cc1c(F)ccc2cc(N)cc(-c3nc4c5c(nc(OC[C@@]67CCCN6C[C@H](F)C7)nc5c3F)N3C(COC)CCOCC3N4C)c12` (stereo partly shown), for which the IC50 amounted to 160 nM.

For the compound `C#Cc1c(F)ccc2cc(N)cc(-c3nc4c5c(nc(OC[C@@]67CCCN6C[C@H](F)C7)nc5c3F)N3CCCC[C@](C)(F)[C@H]3N4C)c12`, the IC50 was over 1000 nM.

On to `C#Cc1c(F)ccc2cc(N)cc(-c3nc4c5c(nc(OC[C@@]67CCCN6C[C@H](F)C7)nc5c3F)N3CCCCOC[C@H]3N4C)c12`, for which the IC50 was found to be 158 nM.

With `C#Cc1c(F)ccc2cc(N)cc(-c3nc4c5c(nc(OC[C@@]67CCCN6C[C@H](F)C7)nc5c3F)N3CCCC[C@H](Cl)[C@H]3N4C)c12`, the IC50 amounted to 63.7 nM.

On to `C#Cc1c(F)ccc2cc(N)cc(-c3nc4c5c(nc(OC[C@@]67CCCN6C[C@H](F)C7)nc5c3F)N3CCCCC[C@H]3C4=C)c12`, for which the IC50 came to 153 nM.

As to `C#Cc1c(F)ccc2cc(N)cc(-c3nc4c5c(nc(OC[C@@]67CCCN6C[C@H](F)C7)nc5c3F)N3CCCCC[C@@H]3N4C)c12`, the IC50 was over 1000 nM.

Regarding `C#Cc1c(F)ccc2cc(N)cc(-c3nc4c5c(nc(OCC67CCCN6CC(=C(F)F)C7)nc5c3F)N3CCCOCC3CO4)c12` (single isomer, unassigned) [Compound 26B], the IC50 is 120 nM.

For `C#Cc1c(F)ccc2cc(N)cc(-c3nc4c5c(nc(OC[C@@]67CCCN6C[C@H](F)C7)nc5c3F)N3CC(F)(F)CCC[C@H]3N4C)c12`, the IC50 worked out at 225 nM.

For `C#Cc1c(F)ccc2cc(N)cc(-c3nc4c5c(nc(OC[C@@]67CCCN6C[C@H](F)C7)nc5c3F)N3CC(F)COCC3N4C)c12` (single isomer, unassigned) [Compound 39A], the half-inhibitory concentration (IC50) turned out to be 142 nM.

`C#Cc1c(F)ccc2cc(N)cc(-c3nc4c5c(nc(OC[C@@]67CCCN6C[C@H](F)C7)nc5c3F)N3CCC=C[C@@H](F)[C@@H]3N4C)c12`: the IC50 is over 1000 nM.

The subject of a further experiment is SW620 cells (K-Ras G12V). Kind of experiment: Phospho-ERK1/2(THR202/TYR204) HTRF assay, SW620. The conditions noted are these: read-out: pERK, IC50, SW620, 2 hours incubation.
On to `C#Cc1c(F)ccc2cc(N)cc(-c3nc4c5c(nc(OC[C@@]67CCCN6C[C@H](F)C7)nc5c3F)N3CCCCOC[C@H]3N4C)c12`, for which the IC50 amounted to 5.23 nM.

Regarding `C#Cc1c(F)ccc2cc(N)cc(-c3nc4c5c(nc(OC[C@@]67CCCN6C[C@H](F)C7)nc5c3F)N3CCCCC[C@H]3C4=C)c12`, the IC50 was 5.71 nM.

For the compound `C#Cc1c(F)ccc2cc(N)cc(-c3nc4c5c(nc(OCC67CCCN6CC(=C(F)F)C7)nc5c3F)N3CCCOCC3CO4)c12` (single isomer, unassigned) [Compound 26B], the IC50 worked out at 2.05 nM.

With `C#Cc1c(F)ccc2cc(N)cc(-c3nc4c5c(nc(OC[C@@]67CCCN6C[C@H](F)C7)nc5c3F)N3CC(F)COCC3N4C)c12` (single isomer, unassigned) [Compound 39A], the IC50 came to 1.93 nM.

A further experiment deals with GDP-KRAS G12V (Homo sapiens, UniProt P01116, G12V). As to the kind of experiment: SOS1 catalyzed nucleotide exchange assay, GDP-KRAS G12V. The conditions noted are these: read-out: Biochemical assays, IC50, KRAS G12V GDP, GDP form K-Ras G12V, TR-FRET.
For `C#Cc1c(F)ccc2cc(N)cc(-c3nc4c5c(nc(OC[C@@]67CCCN6C[C@H](F)C7)nc5c3F)N3C[C@H](OC)COC[C@H]3N4C)c12`, the IC50 amounted to 3.5 nM.

For the compound `C#Cc1c(F)ccc2cc(N)cc(-c3nc4c5c(nc(OCC67CCCN6CC(F)C7)nc5c3F)N3C(C(C)C)CCOCC3N4C)c12` (stereo not shown), the IC50 was 14.6 nM.

For the compound `C#Cc1c(F)ccc2cc(N)cc(-c3nc4c5c(nc(OC[C@@]67CCCN6C[C@H](F)C7)nc5c3F)N3C(COC)CCOCC3N4C)c12` (stereo partly shown), the IC50 came out at 1.02 nM.

On to `C#Cc1c(F)ccc2cc(N)cc(-c3nc4c5c(nc(OC[C@@]67CCCN6C[C@H](F)C7)nc5c3F)N3CCCC[C@](C)(F)[C@H]3N4C)c12`, for which the IC50 came out at 21.3 nM.

Take `C#Cc1c(F)ccc2cc(N)cc(-c3nc4c5c(nc(OC[C@@]67CCCN6C[C@H](F)C7)nc5c3F)N3CCCCOC[C@H]3N4C)c12`: the IC50 stood at 1.45 nM.

With `C#Cc1c(F)ccc2cc(N)cc(-c3nc4c5c(nc(OC[C@@]67CCCN6C[C@H](F)C7)nc5c3F)N3CCCC[C@H](Cl)[C@H]3N4C)c12`, the IC50 was 0.887 nM.

Turning to `C#Cc1c(F)ccc2cc(N)cc(-c3nc4c5c(nc(OC[C@@]67CCCN6C[C@H](F)C7)nc5c3F)N3CCCCC[C@H]3C4=C)c12`, the IC50 stood at 1.96 nM.

As for `C#Cc1c(F)ccc2cc(N)cc(-c3nc4c5c(nc(OC[C@@]67CCCN6C[C@H](F)C7)nc5c3F)N3CCCCC[C@@H]3N4C)c12`, the IC50 was 40.2 nM.

Take `C#Cc1c(F)ccc2cc(N)cc(-c3nc4c5c(nc(OCC67CCCN6CC(=C(F)F)C7)nc5c3F)N3CCCOCC3CO4)c12` (single isomer, unassigned) [Compound 26B]: the IC50 is 0.839 nM.

As to `C#Cc1c(F)ccc2cc(N)cc(-c3nc4c5c(nc(OC[C@@]67CCCN6C[C@H](F)C7)nc5c3F)N3CC(F)(F)CCC[C@H]3N4C)c12`, the IC50 came out at 1.45 nM.

As for `C#Cc1c(F)ccc2cc(N)cc(-c3nc4c5c(nc(OC[C@@]67CCCN6C[C@H](F)C7)nc5c3F)N3CC(F)COCC3N4C)c12` (single isomer, unassigned) [Compound 39A], the IC50 is 0.667 nM.

As to `C#Cc1c(F)ccc2cc(N)cc(-c3nc4c5c(nc(OC[C@@]67CCCN6C[C@H](F)C7)nc5c3F)N3CCC=C[C@@H](F)[C@@H]3N4C)c12`, the IC50 came to 63.9 nM.

The target of a further experiment is GDP-KRAS G12D (Homo sapiens, UniProt P01116, G12D). Kind of experiment: SOS1 catalyzed nucleotide exchange assay, GDP-KRAS G12D. The conditions noted are these: read-out: Biochemical assays, IC50, KRAS G12D GDP, GDP form K-Ras G12D, TR-FRET.
For `C#Cc1c(F)ccc2cc(N)cc(-c3nc4c5c(nc(OC[C@@]67CCCN6C[C@H](F)C7)nc5c3F)N3C[C@H](OC)COC[C@H]3N4C)c12`, the IC50 was 9.92 nM.

For `C#Cc1c(F)ccc2cc(N)cc(-c3nc4c5c(nc(OCC67CCCN6CC(F)C7)nc5c3F)N3C(C(C)C)CCOCC3N4C)c12` (stereo not shown), the IC50 is 34.4 nM.

With `C#Cc1c(F)ccc2cc(N)cc(-c3nc4c5c(nc(OC[C@@]67CCCN6C[C@H](F)C7)nc5c3F)N3C(COC)CCOCC3N4C)c12` (stereo partly shown), the IC50 was 1.77 nM.

As to `C#Cc1c(F)ccc2cc(N)cc(-c3nc4c5c(nc(OC[C@@]67CCCN6C[C@H](F)C7)nc5c3F)N3CCCC[C@](C)(F)[C@H]3N4C)c12`, the IC50 turned out to be 11.1 nM.

For the compound `C#Cc1c(F)ccc2cc(N)cc(-c3nc4c5c(nc(OC[C@@]67CCCN6C[C@H](F)C7)nc5c3F)N3CCCCOC[C@H]3N4C)c12`, the IC50 was 2.1 nM.

Consider `C#Cc1c(F)ccc2cc(N)cc(-c3nc4c5c(nc(OC[C@@]67CCCN6C[C@H](F)C7)nc5c3F)N3CCCC[C@H](Cl)[C@H]3N4C)c12`, for which the IC50 was determined as 0.548 nM.

As to `C#Cc1c(F)ccc2cc(N)cc(-c3nc4c5c(nc(OC[C@@]67CCCN6C[C@H](F)C7)nc5c3F)N3CCCCC[C@H]3C4=C)c12`, the IC50 is 1.67 nM.

Take `C#Cc1c(F)ccc2cc(N)cc(-c3nc4c5c(nc(OC[C@@]67CCCN6C[C@H](F)C7)nc5c3F)N3CCCCC[C@@H]3N4C)c12`: the IC50 was determined as 341 nM.

Turning to `C#Cc1c(F)ccc2cc(N)cc(-c3nc4c5c(nc(OCC67CCCN6CC(=C(F)F)C7)nc5c3F)N3CCCOCC3CO4)c12` (single isomer, unassigned) [Compound 26B], the IC50 stood at 0.551 nM.

Take `C#Cc1c(F)ccc2cc(N)cc(-c3nc4c5c(nc(OC[C@@]67CCCN6C[C@H](F)C7)nc5c3F)N3CC(F)(F)CCC[C@H]3N4C)c12`: the IC50 is 1.45 nM.

Take `C#Cc1c(F)ccc2cc(N)cc(-c3nc4c5c(nc(OC[C@@]67CCCN6C[C@H](F)C7)nc5c3F)N3CC(F)COCC3N4C)c12` (single isomer, unassigned) [Compound 39A]: the IC50 is 1.01 nM.

For the compound `C#Cc1c(F)ccc2cc(N)cc(-c3nc4c5c(nc(OC[C@@]67CCCN6C[C@H](F)C7)nc5c3F)N3CCC=C[C@@H](F)[C@@H]3N4C)c12`, the IC50 was determined as 142 nM.
